From ChEMBL document CHEMBL5058577, “EUbOPEN Chemogenomics Library 2 (Multiplex)” (2022)

Key:
[1] = system: HEK-293T; experiment: Multiplex assay against HEK293T; format: toxicity, cell-based; conditions: human, 12 h, 1 µM, compound concentration 1 uM, replicate 2
[2] = system: Fibroblast; experiment: Multiplex assay against human fibroblast; format: toxicity, cell-based; conditions: 10 µM, compound concentration 10 uM, replicate 1

For `CNC[C@H](O)c1ccc(O)c(O)c1` [EPINEPHRINE], the “Total Cell Count” value [1] was 371, the “Total Cell Count” value ([2]; 0 h) was 165 and the “Total Cell Count” value ([2]; 12 h) was 179.
